# The entries are a selection whose mix differs from that of the whole data set. Active and inactive are the calls of the source. Calls come from the whole dose curve; as a rule, active = well fitted activation curve with a large enough effect; inconclusive = small, poorly fitted or top-dose-only effect; inactive = flat fitted curve, though single readings scatter.
# Assay: Confirmation and Secondary Assay for Modulators of Hemoglobin Beta Chain Splicing at IVS2 705 locus; note: % of control where 0% means no effect
# Conditions: HeLa EGFP-705 splicing reporter, GFP fluorescence, 48 h; at 46.1 µM (top of the series)
# From the text: NIH Chemical Genomics Center [NCGC] NIH Molecular Libraries Screening Centers Network [MLSCN] MLSCN Grant: 1 X01 MH080684-01 PI Name: Dr. Ryszard Kole NCGC Assay Overview: Modulation of Alternative Splicing as Therapy Abnormal splicing is associated with a number of diseases, including cancer and genetic diseases such as cystic fibrosis, muscular dystrophy and beta-thalassemia. Alteration of disease associated splicing patterns provides a promising target for treatment. […] Mutations in the second intron of the b-globin gene at positions 654 or 705 are clinically relevant and cause mis-splicing which results in an out of frame gene product. […] EGFP-705 HeLa Cells as screen system. HeLa cell lines were stably transfected with a construct in which the EGFP (enhanced green fluorescent protein) cDNA was interrupted by the second intron of the beta-globin gene (IVS2-705). The ISV2 intron contains mutations which cause mis-splicing of EGFP and premature termination of EGFP which results in a nonfluorescent protein product. […]
# NCGC Assay Protocol Summary: Confirmatory Screening. […] Plates were read in the Acumen Explorer (TTP Labtech) using 488 nm laser excitation and 500-520 nm emission PMT filter in a 1 x 8 uM capture mode. Fluorescnet objects ranging in size from 5 to 250 uM were measured and the total peak GFP intensity for each well was used for data analysis. […]
row,Structure (SMILES),activation
1,CN(CCCl)CCCl,inactive: 1.52%
